Patent EP0257993B1, “Nucleic acid fragment encoding herbicide resistant plant acetolactate synthase” (priority 1986, dated 1988)

Chains of the proteins cited; added tags and fusions are not shown. Residues count along the entry.
UniProt P09114, 92-664 P191A/W568L: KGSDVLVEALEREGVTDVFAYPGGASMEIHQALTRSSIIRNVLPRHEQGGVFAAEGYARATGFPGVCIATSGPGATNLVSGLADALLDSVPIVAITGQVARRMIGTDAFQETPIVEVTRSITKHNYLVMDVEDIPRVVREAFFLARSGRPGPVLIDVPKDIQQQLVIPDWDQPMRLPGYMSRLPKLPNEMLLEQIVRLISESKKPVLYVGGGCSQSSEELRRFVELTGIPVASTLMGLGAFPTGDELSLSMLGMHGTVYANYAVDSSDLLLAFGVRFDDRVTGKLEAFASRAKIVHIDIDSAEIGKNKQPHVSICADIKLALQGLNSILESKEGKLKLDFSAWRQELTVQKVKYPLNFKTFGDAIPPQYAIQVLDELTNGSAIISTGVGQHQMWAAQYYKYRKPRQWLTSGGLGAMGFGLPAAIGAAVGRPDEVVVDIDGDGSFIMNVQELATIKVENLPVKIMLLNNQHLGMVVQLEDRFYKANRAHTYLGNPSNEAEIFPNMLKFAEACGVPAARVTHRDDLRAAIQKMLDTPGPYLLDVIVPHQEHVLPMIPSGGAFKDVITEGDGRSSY

Experiments:
Brassica napus = Brassica napus plants sprayed with chlorsulfuron; format: in vivo, Brassica napus cv. Olga; conditions: two of the five transformants
tobacco callus [1] = assay: Growth of tobacco mutant callus (C3, S4, Hra) on herbicide; format: cell-based, Nicotiana tabacum var. Xanthi; conditions: C3 cell line (SURA-C3, proline-to-glutamine at position 197)
Protocol: (§1) Callus cultures of sensitive tobacco (Nicotiana tabacum var. Xanthi) were exposed to sulfometuron methyl at 2 ppb according to the method described by Chaleff, U.S. 4,443,971. […] Plants were regenerated from Hra callus cultures. […] ALS activity in extracts of leaves of wild type and homozygous Hra mutant tobacco plants was determined.

ALS = target: T1, ALS (Nicotiana tabacum, UniProt P09114, P191A/W568L); format: biochemical; conditions: homozygous Hra mutant tobacco plants
T1 construct: ALS activity in extracts of leaves of wild type and homozygous Hra mutant tobacco plants was determined; from tissue; host or cells: leaf extracts of homozygous Hra mutant tobacco plants
Protocol: as §1

[2] = system: herbicide-resistant ALS (tobacco SURB-Hra gene); conditions: Brassica napus Transformant Ro#5
tobacco callus [3] = conditions: Chlorsulfuron, 10 ppb
Protocol: For plant cell transformations, standard aseptic techniques for the manipulation of sterile media and axenic plant/bacterial cultures were followed, including the use of a laminar flow hood for all transfers. Recipes for media are given in Example VI. Potted tobacco plants for leaf disk infections were grown in a growth chamber maintained for a 12 hr. 24°C day, 12 hr, 20°C night cycle, with approximately 80% relative humidity, under mixed cool white fluorescent and incandescent lights. Tobacco leaf disk infections were carried out essentially by the method of Horsch et al. (1985) Science 227, 1229.
Young leaves, not fully expanded and approximately 4-6 inches in length, were harvested with a scalpel from approximately 4-6 week old tobacco plants (Nicotiana tabacum var. Xanthi). The leaves were surface sterilized for 30 minutes by submerging them in approximately 500 ml of a 10% Chlorox, 0.1% SDS solution and then rinsed 3 times with sterile deionized water. Leaf disks, 6 mm in diameter, were prepared from whole leaves using a sterile paper punch.
Leaf disks were inoculated by submerging them for several minutes in 20 ml of a 1:10 dilution of an overnight Agrobacterium culture carrying the plasmid GCKNT13. Agrobacterium cultures were started by inoculating 10 ml of YEB broth with a single bacterial colony removed form a R-agar plate. The culture was grown for approximately 17-20 hours in 18 mm glass culture tubes in a New Brunswick platform shaker maintained at 28°C.
After inoculation, the leaf disks were placed in petri dishes containing CN agar medium. The dishes were sealed with paraflm and incubated under mixed fluorescent and "Gro and Sho" plant light (General Electric) for 2-3 days in a culture room maintained at approximately 25°C.
[…] Cefotaxime was kept as a frozen 100 mg/ml stock solution and added aseptically (filter sterilized through a 0.45 µm filter) to the media after autoclaving. A fresh kanamycin stock (50 mg/ml) was made for each use and was filter sterilized into the autoclaved media.
Leaf disks were incubated under the growth conditions described above for 3 weeks and then transferred to fresh media of the same composition.
Root formation on selective and non-selective media was recorded within 3 weeks.
Callus growth on selective and non-selective media was recorded within 3 weeks.

[4] = system: Cells of N.tabacum cv. W38; assay: Level of chlorsulfuron resistance in transformed N. tabacum colonies; format: cell-based; conditions: for Number of Colonies Actively Growing After One Month on Selective Media: N. tabacum/mutant ALS gene (pAGS152), one hundred colonies plated

Compound: COc1nc(C)nc(NC(=O)NS(=O)(=O)c2ccccc2Cl)n1 [chlorsulfuron]
- level of resistance compared with that which is lethal to control (untransformed) plants (Brassica napus): about 10 times
- selective herbicide resistance conferred by the mutation (tobacco callus [1]): conferred resistance
- resistance of ALS activity in leaf extract compared with wild type plants (ALS): about one thousand fold more resistant
- Percent Uninhibited ALS Activity ([2]; 1ppb): 88.1%
- Percent Uninhibited ALS Activity ([2]; 10ppb): 36.6%
- Percent Uninhibited ALS Activity ([2]; 100ppb): 20.1%
- Percent Uninhibited ALS Activity ([2]; 1000ppb): 14.5%
- Number of transformed shoot explants producing callus on selective and non-selective media (tobacco callus [3]; EXP. #1, GV3850): 0/10
- Number of transformed shoot explants producing callus on selective and non-selective media (tobacco callus [3]; EXP. #1, GVKK): 0/13
- Number of transformed shoot explants producing callus on selective and non-selective media (tobacco callus [3]; EXP. #1, GVKNT13): 0/62
- Number of transformed shoot explants producing callus on selective and non-selective media (tobacco callus [3]; Exp. #2, GV3850): 0/25
- Number of transformed shoot explants producing callus on selective and non-selective media (tobacco callus [3]; Exp. #2, GVKK): 0/23
- Number of transformed shoot explants producing callus on selective and non-selective media (tobacco callus [3]; Exp. #2, GVKNT13): 0/102
- Number of Colonies Actively Growing After One Month on Selective Media ([4]; chlorsulfuron 20 ppb): 100
- Number of Colonies Actively Growing After One Month on Selective Media ([4]; chlorsulfuron 50 ppb): 100
- Number of Colonies Actively Growing After One Month on Selective Media ([4]; chlorsulfuron 200 ppb): 100
- Number of Colonies Actively Growing After One Month on Selective Media ([4]; chlorsulfuron 500 ppb): 100
- Number of Colonies Actively Growing After One Month on Selective Media ([4]; chlorsulfuron 2000 ppb): 99
- Number of Colonies Actively Growing After One Month on Selective Media ([4]; chlorsulfuron 20000 ppb): 6
- level of resistance compared with S4 herbicide-resistant mutant tobacco ([4]; pAGS152 transformants): about ten fold higher

Where two headings read alike, the source gives them in different places.
